This passage reports viability results from ChEMBL document CHEMBL5528038, “Discovery of 2,3-Diaminoindole Derivatives as a Novel Class of NOD Antagonists” (J Med Chem, 2024).

Data set [1] is described as follows: in vitro. Conditions: human, HEK-Blue hNOD1 cells.
A short description of data set [2]: in vitro. Conditions: human, HEK-Blue hNOD2 cells.

Where only a bound is given, the exact number is not on record here.

`Cc1ccc(S(=O)(=O)n2c(NC(C)(C)C)c(N3CCN(C)CC3)c3ccccc32)cc1`: the viability at 18 h, 25 µM in “in vitro [1]” and in the data set “in vitro [2]” was no less than 80% in each case.
